US20100240768A1, “NOVEL NUTRACEUTICALCOMPOSITIONS CONTAINING THYMOL AND/OR P-CYMENE OR PLANT EXTRACTS FOR COGNITION” (priority 2007, published 2010)

Protein sequences, listed by entry. Tags and fused reporters are not part of them. Residues count along the entry.
UniProt P48067, 1-652 isoform 3: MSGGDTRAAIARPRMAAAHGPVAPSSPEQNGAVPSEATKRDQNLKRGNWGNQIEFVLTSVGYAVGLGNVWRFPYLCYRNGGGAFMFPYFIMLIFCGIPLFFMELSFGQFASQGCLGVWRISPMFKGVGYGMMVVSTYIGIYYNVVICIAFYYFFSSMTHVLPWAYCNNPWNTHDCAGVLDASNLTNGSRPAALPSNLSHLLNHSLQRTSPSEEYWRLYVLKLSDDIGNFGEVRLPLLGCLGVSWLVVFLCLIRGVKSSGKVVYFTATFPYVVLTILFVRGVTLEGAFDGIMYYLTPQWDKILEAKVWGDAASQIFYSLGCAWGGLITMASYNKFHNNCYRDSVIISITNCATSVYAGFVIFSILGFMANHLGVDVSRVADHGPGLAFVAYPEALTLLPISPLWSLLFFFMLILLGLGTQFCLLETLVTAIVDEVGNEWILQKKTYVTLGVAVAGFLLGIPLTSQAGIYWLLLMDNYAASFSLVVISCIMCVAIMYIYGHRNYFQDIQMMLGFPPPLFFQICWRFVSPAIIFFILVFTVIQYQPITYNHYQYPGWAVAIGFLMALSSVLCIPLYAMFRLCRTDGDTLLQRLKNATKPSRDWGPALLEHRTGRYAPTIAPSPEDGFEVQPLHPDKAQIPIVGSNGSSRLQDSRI

Target: human glycine transporter 1b (GlyT1) (Homo sapiens, UniProt P48067)
Assay: Inhibition of glycine transporter 1 in a cellular assay ([3H]glycine uptake into CHO cells)
Assay type: cell-based
Conditions: read-out: IC50 (FIG. 1, GlyT1 inhibition assay); dose-response curve, internalization of radioactive glycine into the cells

IC50: 20 nM
SMILES: CN(CC[C@@H](Oc1ccc(C(F)(F)F)cc1)c1ccccc1)CC(=O)O
